## Antibody variant affinities, Ab-91 heavy chain, assay 2

Binding partner: SARS-CoV-2 spike HR2 peptide, sequence PDVDLGDISGINAS.

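The library (AAYL51) carries one to three amino acid substitutions per variant, with no insertions or deletions. AlphaSeq pools MATa yeast showing the antibodies with MATalpha yeast showing the peptide. Pairs that bind mate more often; barcode pairs of the diploids are counted by sequencing. The ratio of observed to expected reads was calibrated, replicate by replicate, on BCL2-family standards whose Kd was known from biolayer interferometry. The assay was run in three technical replicates.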

Ab-91 is the parent antibody, in scFv form: VL, then a (GGGGS)3 linker, then VH. The light chain is unchanged in all variants.
VL: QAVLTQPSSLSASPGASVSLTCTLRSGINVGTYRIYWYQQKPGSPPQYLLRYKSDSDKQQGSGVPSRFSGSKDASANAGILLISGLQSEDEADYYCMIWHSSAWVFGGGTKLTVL
VH: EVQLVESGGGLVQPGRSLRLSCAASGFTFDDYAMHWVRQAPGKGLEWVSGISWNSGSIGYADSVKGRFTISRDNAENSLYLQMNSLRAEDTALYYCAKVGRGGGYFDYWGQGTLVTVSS

Sequences are complete VH domains.
Every variant below is changed at G50 of the VH (sequential numbering).
The Kd shown is the geometric mean over detected replicates; a lower Kd is a better binder.
"no signal" means that the variant was in the library but no mating with the target was seen in any replicate; the authors take this as a sign of poor binding, and no number exists.
Three control strains display no target. For library AAYL51, 21% of the pairings with them gave a signal, with a median of 34 µM and one signal in twenty below 1.8 µM, so weak values seen in few replicates may be background. Also given: how often the same scFv was detected with the empty control strains.

For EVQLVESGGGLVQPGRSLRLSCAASGFTFDDYAMHWVRQAPGKGLEWVSYISWNSGCIGYADSVKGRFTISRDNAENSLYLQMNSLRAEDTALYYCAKVERGGGYFDYWGQGTLVTVSS, the assay gave 26 µM (1 of 3 replicates; controls 0 of 9). Variant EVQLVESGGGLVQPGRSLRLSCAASGFTFDDYAMHWVRQAPGKGLEWVSVISWNSGSIGYADSVSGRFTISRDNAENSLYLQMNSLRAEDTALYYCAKYGRGGGYFDYWGQGTLVTVSS showed 20 µM (2 of 3 replicates; controls 1 of 9). Variant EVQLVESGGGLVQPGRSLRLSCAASGFTFDDYAMHWVRQAPGKGLEWVSQISWNRGSIGFADSVKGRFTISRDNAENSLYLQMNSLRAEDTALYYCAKVGRGGGYFDYWGQGTLVTVSS gave no signal (0 of 3 replicates; controls 1 of 9). Variant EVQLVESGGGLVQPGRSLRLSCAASGFTFDDYAMHWVRQAPGKGLEWVSRISWNSGSIGYADSVKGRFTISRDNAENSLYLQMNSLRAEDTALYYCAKVGRGGGYADYWGQGTLVTVSS showed no signal (0 of 3 replicates; controls 0 of 9). Variant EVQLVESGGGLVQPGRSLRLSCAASGFTFDDYAMHWVRQAPGKGLEWVSQISWHPGSIGYADSVKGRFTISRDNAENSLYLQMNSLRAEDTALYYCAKVGRGGGYFDYWGQGTLVTVSS gave no signal (0 of 3 replicates; controls 0 of 9). For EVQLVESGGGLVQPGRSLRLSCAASGLTFDDYAMHWVRQAPGKGLEWVSIISWNHGSIGYADSVKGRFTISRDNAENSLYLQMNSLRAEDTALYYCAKVGRGGGYFDYWGQGTLVTVSS, the assay gave 130 µM (2 of 3 replicates; controls 2 of 9).

Variant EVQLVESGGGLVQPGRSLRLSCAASGFTFDDYVMHWVRQAPGKGLEWVSVIMWNSGSIGYADSVKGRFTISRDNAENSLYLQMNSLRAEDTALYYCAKVGRGGGYFDYWGQGTLVTVSS showed no signal (0 of 3 replicates; controls 0 of 9). For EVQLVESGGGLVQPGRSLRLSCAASLFTFDDYAMHWVRQAPGKGLEWVSPISWNSGSIGYADSVKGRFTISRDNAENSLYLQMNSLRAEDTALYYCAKVGPGGGYFDYWGQGTLVTVSS, the assay gave 800 µM (2 of 3 replicates; controls 6 of 9). Variant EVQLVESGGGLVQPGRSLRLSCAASGFTFWDYAMHWVRQAPGKGLEWVSTISWNSGSIGYAGSVKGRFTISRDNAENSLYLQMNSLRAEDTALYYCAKVGRGGGYFDYWGQGTLVTVSS gave 190 µM (1 of 3 replicates; controls 1 of 9). Variant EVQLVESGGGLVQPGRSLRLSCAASGFTFDDYAMHWVRQAPGKGLEWVSCISWNSISIGYADSVKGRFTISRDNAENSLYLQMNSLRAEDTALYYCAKVGRGGGYFDVWGQGTLVTVSS gave no signal (0 of 3 replicates; controls 0 of 9). With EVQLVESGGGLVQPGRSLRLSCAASGFTEDDYAMHWVRQAPGKGLEWVSIISWNSGSIGYADSRKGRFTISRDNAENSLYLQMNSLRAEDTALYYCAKVGRGGGYFDYWGQGTLVTVSS the result was no signal (0 of 3 replicates; controls 0 of 9). For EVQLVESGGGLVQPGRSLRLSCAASGFTFDDYAMHWVRQAPGKGLEWVSQESWNSGSIGYADSVKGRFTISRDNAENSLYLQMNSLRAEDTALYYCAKVGRGQGYFDYWGQGTLVTVSS, the assay gave 230 µM (1 of 3 replicates; controls 5 of 9).

Variant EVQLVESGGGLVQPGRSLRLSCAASGFTFDDYAMHWVRQAPGKGLEWVSCISWNSGSIGYADSVKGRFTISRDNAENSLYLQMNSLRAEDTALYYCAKVGQGKGYFDYWGQGTLVTVSS gave no signal (0 of 3 replicates; controls 0 of 9). Variant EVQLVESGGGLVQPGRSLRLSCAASGFTFDDYKMHWVRQAPGKGLEWVSCESWNSGSIGYADSVKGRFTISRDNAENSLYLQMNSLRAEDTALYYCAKVGRGGGYFDYWGQGTLVTVSS showed no signal (0 of 3 replicates; controls 0 of 9). Variant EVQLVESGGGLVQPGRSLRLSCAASGFGFDDYAMHWVRQAPGKGLEWVSMISWNSGAIGYADSVKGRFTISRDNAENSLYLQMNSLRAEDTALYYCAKVGRGGGYFDYWGQGTLVTVSS showed no signal (0 of 3 replicates; controls 0 of 9). With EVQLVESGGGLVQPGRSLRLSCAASGFTFDDYAMHWVRQAPGKGLEWVSWISWNSGSIGYADSVKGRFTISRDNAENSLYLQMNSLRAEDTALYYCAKRVRGGGYFDYWGQGTLVTVSS the result was no signal (0 of 3 replicates; controls 1 of 9).

Values reported by Engelhart et al. 2022, doi:10.1038/s41597-022-01779-4 (FLAb copy).